Data published in ChEMBL document CHEMBL2346647, “Identification and characterization of small molecule inhibitors of signal transducer and activator of transcription 3 (STAT3) signaling pathway by virtual screening” (Bioorg Med Chem Lett, 2013).

System: HepG2
Test: Selectivity of STAT1 (unknown origin) over STAT3 in human HepG2 cells
Assay type: cell-based

Question: `Oc1ccc(NCc2cc(Cl)ccc2OCc2ccc(Cl)cc2)cc1` was tested. Which Selectivity ratio did it give?
Answer: > 3
